Measured values from PMC6539310, “Investigation on the Enzymatic Profile of Mulberry Alkaloids by Enzymatic Study and Molecular Docking” (Molecules, 2019).
Like-named read-outs stand apart in the source and are kept apart here.

Sequences of proteins named here, by UniProt entry; tags and fusion partners are left off. A change or cut given only in a name is not applied to a line headed by its entry.
UniProt P23739: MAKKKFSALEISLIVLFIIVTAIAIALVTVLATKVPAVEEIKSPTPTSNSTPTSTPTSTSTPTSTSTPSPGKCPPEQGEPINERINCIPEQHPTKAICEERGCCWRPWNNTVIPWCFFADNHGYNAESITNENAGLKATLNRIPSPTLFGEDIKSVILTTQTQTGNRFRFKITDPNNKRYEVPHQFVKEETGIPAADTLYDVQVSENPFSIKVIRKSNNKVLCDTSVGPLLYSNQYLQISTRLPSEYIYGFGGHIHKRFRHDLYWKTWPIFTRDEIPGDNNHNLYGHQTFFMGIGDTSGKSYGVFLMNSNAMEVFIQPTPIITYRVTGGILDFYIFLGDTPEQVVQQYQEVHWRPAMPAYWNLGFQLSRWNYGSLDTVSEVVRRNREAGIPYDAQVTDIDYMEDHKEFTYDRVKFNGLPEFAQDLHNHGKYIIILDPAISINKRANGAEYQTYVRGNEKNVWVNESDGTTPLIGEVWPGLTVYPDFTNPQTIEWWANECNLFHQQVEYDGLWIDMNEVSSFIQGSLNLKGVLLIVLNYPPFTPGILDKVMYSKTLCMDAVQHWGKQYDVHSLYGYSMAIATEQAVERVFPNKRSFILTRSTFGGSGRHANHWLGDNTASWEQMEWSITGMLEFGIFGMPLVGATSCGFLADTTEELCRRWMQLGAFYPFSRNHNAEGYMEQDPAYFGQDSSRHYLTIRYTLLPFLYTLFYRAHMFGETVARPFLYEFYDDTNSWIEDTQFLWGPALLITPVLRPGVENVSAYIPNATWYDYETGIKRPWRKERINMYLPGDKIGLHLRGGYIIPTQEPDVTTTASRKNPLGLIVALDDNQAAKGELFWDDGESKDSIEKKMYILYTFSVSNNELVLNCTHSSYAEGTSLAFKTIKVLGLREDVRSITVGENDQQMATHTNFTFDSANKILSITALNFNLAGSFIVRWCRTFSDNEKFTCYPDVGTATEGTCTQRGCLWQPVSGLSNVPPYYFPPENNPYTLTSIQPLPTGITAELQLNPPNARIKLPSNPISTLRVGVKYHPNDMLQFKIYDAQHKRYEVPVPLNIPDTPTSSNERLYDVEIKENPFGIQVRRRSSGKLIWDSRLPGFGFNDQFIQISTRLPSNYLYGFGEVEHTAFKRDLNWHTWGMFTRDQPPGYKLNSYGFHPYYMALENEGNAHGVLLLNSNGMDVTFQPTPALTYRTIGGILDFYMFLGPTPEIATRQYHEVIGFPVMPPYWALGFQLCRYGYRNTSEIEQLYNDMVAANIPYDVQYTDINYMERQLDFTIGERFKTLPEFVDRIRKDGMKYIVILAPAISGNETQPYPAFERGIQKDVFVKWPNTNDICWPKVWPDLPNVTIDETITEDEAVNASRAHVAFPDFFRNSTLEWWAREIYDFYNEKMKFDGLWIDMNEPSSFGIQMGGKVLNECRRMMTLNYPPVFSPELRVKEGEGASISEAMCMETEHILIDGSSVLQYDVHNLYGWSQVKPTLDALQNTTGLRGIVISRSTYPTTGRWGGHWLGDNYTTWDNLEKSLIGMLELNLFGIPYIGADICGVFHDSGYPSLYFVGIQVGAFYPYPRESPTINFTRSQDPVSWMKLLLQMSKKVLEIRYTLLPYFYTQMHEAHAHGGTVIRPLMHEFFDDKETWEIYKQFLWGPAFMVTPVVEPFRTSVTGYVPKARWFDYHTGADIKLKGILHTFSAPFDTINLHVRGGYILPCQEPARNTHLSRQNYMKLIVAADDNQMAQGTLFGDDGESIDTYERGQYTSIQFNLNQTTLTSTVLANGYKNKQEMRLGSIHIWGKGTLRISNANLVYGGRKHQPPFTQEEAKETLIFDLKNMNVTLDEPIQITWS

Assays:
[1] = molecular target: T1, sucrase (Rattus norvegicus, UniProt P23739); test: α-glucosidase inhibition assay, sucrase (sucrose substrate, glucose oxidase readout); type: biochemical, Wistar rats
T1 construct: Sucrase and maltase were obtained from the intestinal brush border of Wistar rats; from tissue; host or cells: intestinal brush border of Wistar rats
Method: (§1) Sucrase and maltase were obtained from the intestinal brush border of Wistar rats. […] Each stock solution was prepared with distilled water. All other solvents and chemicals were of analytical purity.
The modified inhibitory screening system was used to determine inhibitory activity on α-glucosidase. Selected starch, sucrose, and maltose were used as α-glucosidase substrates instead of p-nitrophenyl glucopyranoside. Maltase and sucrase were pre-incubated with different concentrations of compound (0.004–400 μmol/L) at 37 °C for 8 min, and the substrate was then added into initiate the reaction. After incubation at 37 °C for 40 min, 150 μL of glucose oxidase solution was added to each mixture and incubated at 37 °C for 40 min. […] Inhibitory percentage values were calculated using the formula: %Inhibition = (B − C)/B × 100, where B is the formation of glucose under the enzyme without compound and C is the formation of glucose with compound.

[2] = molecular target: T1, sucrase; test: Enzyme-kinetic analysis on sucrase (Lineweaver–Burk plots); type: biochemical, Wistar rats; conditions: from LB plots
Method: as §1
Lineweaver–Burk double reciprocal plots (LB plots) were then obtained to calculate the kinetic constants and evaluate inhibitory type, the equation is as follows: 1/V = (Km + [S])/(Vmax[S]) = (Km/Vmax) * (1/[S]) + (1/Vmax),
In this equation, [S] denotes the concentration of substrate, V represents the enzyme reaction velocity and Km is the Michaelis–Menten constant.

C[C@H]1O[C@H](O[C@H]2[C@H](O)[C@@H](O)[C@@H](O[C@H]3[C@H](O)[C@@H](O)C(O)O[C@@H]3CO)O[C@@H]2CO)[C@H](O)[C@@H](O)[C@@H]1N[C@H]1C=C(CO)[C@@H](O)[C@H](O)[C@H]1O (stereo partly drawn) [Acarbose, acarbose, reference compound]
IC50 ([1]; converted from μmol/L by mol wt, read-out: Sucrase IC50 after conversion according to the molecular weight (converted)): 1.05 µM | IC50 ([1]; read-out: Sucrase Inhibition IC50): 1.05 µM | Ki [2]: 0.0532 µM
